Data: ChEMBL document CHEMBL3396955, “Discovery of non-electrophilic capsaicinoid-type TRPA1 ligands” (Bioorg Med Chem Lett, 2015)

Protein sequences, listed by entry. Tags and fused reporters are not part of them.
UniProt Q6RI86, whole entry: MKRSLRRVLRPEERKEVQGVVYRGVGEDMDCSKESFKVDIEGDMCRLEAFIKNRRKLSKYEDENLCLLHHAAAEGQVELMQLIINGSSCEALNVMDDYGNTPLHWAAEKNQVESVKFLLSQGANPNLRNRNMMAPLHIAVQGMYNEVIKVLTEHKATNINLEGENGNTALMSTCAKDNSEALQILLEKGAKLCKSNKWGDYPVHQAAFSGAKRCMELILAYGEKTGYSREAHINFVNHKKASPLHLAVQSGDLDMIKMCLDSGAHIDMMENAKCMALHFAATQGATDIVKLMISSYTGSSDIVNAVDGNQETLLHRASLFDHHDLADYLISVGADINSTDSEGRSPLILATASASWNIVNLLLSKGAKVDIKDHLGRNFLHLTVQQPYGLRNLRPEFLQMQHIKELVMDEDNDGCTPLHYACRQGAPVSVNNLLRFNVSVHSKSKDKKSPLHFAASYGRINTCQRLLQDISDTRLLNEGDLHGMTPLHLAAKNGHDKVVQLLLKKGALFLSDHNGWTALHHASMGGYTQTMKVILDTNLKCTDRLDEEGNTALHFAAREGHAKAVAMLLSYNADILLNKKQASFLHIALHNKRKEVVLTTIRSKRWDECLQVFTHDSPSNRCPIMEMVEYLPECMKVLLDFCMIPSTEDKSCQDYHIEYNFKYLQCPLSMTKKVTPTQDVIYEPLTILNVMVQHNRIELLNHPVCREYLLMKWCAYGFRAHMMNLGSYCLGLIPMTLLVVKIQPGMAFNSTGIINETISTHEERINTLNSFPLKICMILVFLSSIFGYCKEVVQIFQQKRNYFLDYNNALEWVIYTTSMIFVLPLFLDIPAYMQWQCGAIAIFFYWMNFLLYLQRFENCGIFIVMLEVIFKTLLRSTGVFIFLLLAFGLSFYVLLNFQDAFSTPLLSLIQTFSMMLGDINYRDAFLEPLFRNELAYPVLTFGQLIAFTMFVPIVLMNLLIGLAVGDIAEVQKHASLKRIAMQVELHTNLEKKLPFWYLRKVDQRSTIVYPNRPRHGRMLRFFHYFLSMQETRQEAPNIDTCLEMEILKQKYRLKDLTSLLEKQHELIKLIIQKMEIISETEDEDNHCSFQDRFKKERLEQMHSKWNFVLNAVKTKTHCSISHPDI

Tests used:
[1] = molecular target: T1, Transient receptor potential cation channel subfamily A member 1 (Rattus norvegicus, UniProt Q6RI86); test: Agonist activity at rat recombinant TRPA1 expressed in HEK293 cells assessed as Ca2+ influx by Fluo-4 dye based assay; format: cell-based
[2] = molecular target: T1, Transient receptor potential cation channel subfamily A member 1; test: Antagonist activity against rat recombinant TRPA1 expressed in HEK293 cells assessed as inhibition of AITC-induced Ca2+ influx pre-treated 5 mins before capsaicin addition by Fluo-4 dye based assay; format: cell-based

Which results are given for C=CCN=C=S [ALLYL ISOTHIOCYANATE]?
EC50 [1]: 2000 nM; IC50 [2]: 85.9 µM
